Values quoted from earlier work as cited in patent US20230120480A1, “METHODS FOR REMOVING CO[…] PLANT-DERIVED PHARMACEUTICALS” (priority 2021, published 2023).

Settings: permissible limit of the pesticide in Cannabis, State of Oregon

## CN(C)NC(=O)CCC(=O)O [Daminozide]
  Action Level (ppm): 1 ppm
